Experimental data: patent US12440484B2, “1,3,4-oxadiazole homophthalimide derivative compounds as histone deacetylase 6 inhibitor, and the pharmaceutical composition comprising the same” (Chong Kun Dang Pharmaceutical Corp., priority 2019, dated 2025)

Protein sequences, listed by entry. Tags and fused reporters are not part of them. Lines headed by an entry give the natural chain unless they say otherwise; changes in a name come on top.
UniProt Q9UBN7: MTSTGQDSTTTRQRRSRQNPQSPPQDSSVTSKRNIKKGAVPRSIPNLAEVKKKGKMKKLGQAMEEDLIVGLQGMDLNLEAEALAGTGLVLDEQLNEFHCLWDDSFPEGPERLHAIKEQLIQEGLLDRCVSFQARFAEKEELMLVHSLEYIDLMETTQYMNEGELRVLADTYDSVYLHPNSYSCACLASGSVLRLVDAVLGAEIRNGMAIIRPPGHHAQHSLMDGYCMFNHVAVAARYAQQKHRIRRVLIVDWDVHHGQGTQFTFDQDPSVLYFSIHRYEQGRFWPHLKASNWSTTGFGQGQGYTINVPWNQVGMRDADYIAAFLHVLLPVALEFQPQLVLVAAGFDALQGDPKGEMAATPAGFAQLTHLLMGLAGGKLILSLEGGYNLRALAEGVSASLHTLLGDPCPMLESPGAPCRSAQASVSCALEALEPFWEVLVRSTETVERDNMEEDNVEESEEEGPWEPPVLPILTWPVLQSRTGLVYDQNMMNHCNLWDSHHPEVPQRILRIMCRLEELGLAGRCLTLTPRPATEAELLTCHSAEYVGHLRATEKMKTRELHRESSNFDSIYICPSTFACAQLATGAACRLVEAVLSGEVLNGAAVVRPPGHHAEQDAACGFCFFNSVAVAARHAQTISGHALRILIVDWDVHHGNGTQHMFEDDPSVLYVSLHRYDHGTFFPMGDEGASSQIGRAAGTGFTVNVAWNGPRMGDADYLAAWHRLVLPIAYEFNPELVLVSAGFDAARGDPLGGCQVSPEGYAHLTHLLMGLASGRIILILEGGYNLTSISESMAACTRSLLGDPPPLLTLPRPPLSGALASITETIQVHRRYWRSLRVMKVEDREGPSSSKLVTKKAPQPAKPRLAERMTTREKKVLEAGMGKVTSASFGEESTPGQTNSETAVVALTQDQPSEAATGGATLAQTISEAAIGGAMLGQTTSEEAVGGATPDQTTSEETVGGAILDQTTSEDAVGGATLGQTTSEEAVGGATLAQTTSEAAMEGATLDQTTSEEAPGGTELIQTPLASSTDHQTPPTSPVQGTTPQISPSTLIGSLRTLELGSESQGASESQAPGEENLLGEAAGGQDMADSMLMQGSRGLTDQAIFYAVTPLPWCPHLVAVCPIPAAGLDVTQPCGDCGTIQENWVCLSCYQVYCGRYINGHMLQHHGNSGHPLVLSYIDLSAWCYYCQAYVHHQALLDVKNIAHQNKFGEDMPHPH
UniProt Q13547, whole entry: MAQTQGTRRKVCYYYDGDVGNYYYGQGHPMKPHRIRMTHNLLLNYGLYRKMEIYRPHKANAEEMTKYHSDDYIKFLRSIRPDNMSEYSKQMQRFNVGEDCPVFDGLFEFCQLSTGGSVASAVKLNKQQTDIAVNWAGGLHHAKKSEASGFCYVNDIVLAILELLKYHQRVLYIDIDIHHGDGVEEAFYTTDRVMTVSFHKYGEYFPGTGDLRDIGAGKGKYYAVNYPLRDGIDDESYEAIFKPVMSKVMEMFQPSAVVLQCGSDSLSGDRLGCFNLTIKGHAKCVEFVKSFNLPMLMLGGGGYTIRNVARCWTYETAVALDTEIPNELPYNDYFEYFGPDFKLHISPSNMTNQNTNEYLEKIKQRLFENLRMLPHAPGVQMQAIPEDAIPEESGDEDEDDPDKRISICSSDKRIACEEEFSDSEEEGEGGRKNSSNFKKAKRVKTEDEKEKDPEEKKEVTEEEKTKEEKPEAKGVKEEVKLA

Tests used:
HDAC6 human recombinant = HDAC6 human recombinant (Homo sapiens (Human), UniProt Q9UBN7); assay: HDAC enzyme activity inhibition (in vitro), HDAC6 assay; format: biochemical; settings: samples at 0.1, 1, 10, 100 and 1000 nM; 37° C. 60 minutes; fluorescence Ex 390, Em 460
HDAC1 = HDAC1 (Homo sapiens (Human), UniProt Q13547); assay: HDAC enzyme activity inhibition (in vitro), HDAC1 Fluorimetric Drug Discovery Assay Kit; format: biochemical; settings: samples at 100, 1000 and 10000 nM; 37° C. 60 minutes; fluorescence Ex 390, Em 460

CC1(C)C(=O)N(Cc2ccc(-c3nnc(C(F)F)o3)cn2)C(=O)c2ccc(N3CCN(C4CCCCC4)CC3)cc21 [Compound 46, 6-(4-cyclohexylpiperazine-1-yl)-2-((5-(5-(difluoromethyl)-1,3,4-oxadiazole-2-yl)pyridine-2-yl)methyl)-4,4-dimethylisoquinoline-1,3(2H,4H)-dione]
IC50 (HDAC6 human recombinant): 121 nM | IC50 (HDAC1): > 10000 nM

CC1(C)C(=O)N(Cc2ccc(-c3nnc(C(F)F)o3)cn2)C(=O)c2ccc(N3CCC3)cc21 [Compound 28, 6-(azetidine-1-yl)-2-((5-(5-(difluoromethyl)-1,3,4-oxadiazole-2-yl)pyridine-2-yl)methyl)-4,4-dimethylisoquinoline-1,3(2H,4H)-dione]
IC50 (HDAC6 human recombinant): 24 nM
